Sequences of proteins named here, by UniProt entry; tags and fusion partners are left off.
UniProt P41240, whole entry: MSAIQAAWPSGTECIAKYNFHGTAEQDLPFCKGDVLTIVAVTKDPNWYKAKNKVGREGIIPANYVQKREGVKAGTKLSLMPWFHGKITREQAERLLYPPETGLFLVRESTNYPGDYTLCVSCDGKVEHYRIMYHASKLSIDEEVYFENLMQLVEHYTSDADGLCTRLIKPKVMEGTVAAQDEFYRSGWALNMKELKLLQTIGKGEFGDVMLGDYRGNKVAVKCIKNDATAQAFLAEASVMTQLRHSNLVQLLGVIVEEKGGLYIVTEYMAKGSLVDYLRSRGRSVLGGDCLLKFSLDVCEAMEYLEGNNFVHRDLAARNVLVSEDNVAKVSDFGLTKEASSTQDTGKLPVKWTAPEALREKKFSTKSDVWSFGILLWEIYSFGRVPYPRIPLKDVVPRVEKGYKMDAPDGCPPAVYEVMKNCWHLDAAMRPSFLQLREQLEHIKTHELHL
UniProt P06239, whole entry: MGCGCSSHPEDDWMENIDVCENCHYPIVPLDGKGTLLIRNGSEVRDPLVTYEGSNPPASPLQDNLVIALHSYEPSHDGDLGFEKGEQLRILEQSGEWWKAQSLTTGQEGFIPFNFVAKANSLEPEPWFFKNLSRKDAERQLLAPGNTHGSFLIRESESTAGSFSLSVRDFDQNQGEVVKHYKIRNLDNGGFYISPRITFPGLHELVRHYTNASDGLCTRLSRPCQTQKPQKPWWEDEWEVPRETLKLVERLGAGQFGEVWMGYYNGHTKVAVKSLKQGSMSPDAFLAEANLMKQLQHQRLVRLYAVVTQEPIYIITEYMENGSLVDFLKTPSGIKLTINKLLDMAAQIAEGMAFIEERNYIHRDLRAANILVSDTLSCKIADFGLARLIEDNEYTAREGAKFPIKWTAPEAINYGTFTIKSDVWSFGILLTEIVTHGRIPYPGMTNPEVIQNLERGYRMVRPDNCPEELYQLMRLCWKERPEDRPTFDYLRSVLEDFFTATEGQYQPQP

In patent US12427146B2, “C-terminal SRC kinase inhibitors” (INVENTISBIO CO., LTD., priority 2018, dated 2025):

Key:
CSK protein = CSK protein (Homo sapiens (Human), UniProt P41240); experiment: CSK Inhibition Assay; settings: read-out: CSK IC50
LCK protein = LCK protein (Homo sapiens (Human), UniProt P06239); experiment: LCK Inhibition Assay; settings: read-out: LCK IC50
Protocol: Test compound was dissolved in DMSO at 10 mM. 45 uL of compound was transfer into a 384-well compound source plate (LABCYTE cat #P-05525) and serially diluted at 1:3 ratio to create a 11-point dilutions. The same volume of DMSO was adopted as high control. 20 nL of these compounds DMSO dilutes were dispensed into a new 384-well assay plate by Echo 550. LCK protein (0.50 nM, Cama Biosciences, cat #08-170), florescent labeled substrate FLPeptide4 (2 μM, PerkinElmer, cat #760348) was prepared in kinase assay buffer (50 mM HEPES (pH 7.5), 10 mM MgCl2, 0.01% Brij-35, 2 mM DTT and 0.005 mg/ml BSA). 15 uL of kinase assay buffer containing LCK protein and substrate was transferred to assay plate and incubate at RT for 30 minutes. Kinase assay buffer supplemented with substrate peptides was employed as low control to monitor the background. 400 μM ATP was prepared in kinase assay buffer and 5 μL of ATP solution was added to each well to start the reaction. The assay plate was incubated at 25° C. for 90 minutes and the reaction was stopped by adding 40 μL of 0.5 M EDTA.
Phosphorylated fluorescent-tagged peptides were differentiated from non-phosphorylated peptides by separating using Caliper EZ Reader II and the detection was directly converted to conversion ratio. […]

**Q.** What does the source list for `Cc1ccc(F)c(S(=O)(=O)Nc2cccc(-c3nc(-c4cncc(F)c4)sc3-c3ccnc(NC(C)C)n3)c2F)c1F`?
**A.** IC50 (CSK protein): 15 nM; IC50 (LCK protein): > 1000 nM
